The test deals with Maternal embryonic leucine zipper kinase (Homo sapiens, UniProt Q14680). The test is described as follows: Binding affinity to wild-type human full length MELK (M1 to V651 residues) expressed in bacterial expression system by Kinomescan method.

Protein sequences, listed by entry. Tags and fused reporters are not part of them. Lines headed by an entry give the natural chain unless they say otherwise; changes in a name come on top.
UniProt Q14680: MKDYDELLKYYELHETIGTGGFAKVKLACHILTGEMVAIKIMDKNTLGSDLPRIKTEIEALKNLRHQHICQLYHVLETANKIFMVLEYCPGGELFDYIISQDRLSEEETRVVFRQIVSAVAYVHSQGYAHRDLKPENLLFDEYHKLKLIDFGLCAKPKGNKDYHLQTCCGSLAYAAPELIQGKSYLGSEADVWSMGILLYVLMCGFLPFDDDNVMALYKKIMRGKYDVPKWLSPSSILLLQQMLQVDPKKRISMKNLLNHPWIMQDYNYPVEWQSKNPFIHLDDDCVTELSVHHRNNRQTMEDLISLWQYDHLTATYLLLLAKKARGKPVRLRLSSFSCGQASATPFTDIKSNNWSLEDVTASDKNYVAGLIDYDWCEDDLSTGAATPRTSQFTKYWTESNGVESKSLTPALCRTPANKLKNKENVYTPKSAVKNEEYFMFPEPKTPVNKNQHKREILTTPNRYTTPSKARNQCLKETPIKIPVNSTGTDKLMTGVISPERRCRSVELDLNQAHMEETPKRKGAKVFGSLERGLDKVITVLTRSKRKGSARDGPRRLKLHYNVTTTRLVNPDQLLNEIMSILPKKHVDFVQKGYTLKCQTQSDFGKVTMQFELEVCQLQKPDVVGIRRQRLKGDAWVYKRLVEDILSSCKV

Usually Kd stands for a measure of binding affinity in units of concentration. Low values mean higher affinity, high ones lower affinity. Consider `CC(=O)c1cnc2ccc(-c3cc(Cl)c(O)c(Cl)c3)nc2c1N[C@H]1CC[C@H](CN(C)C)CC1`, for which the Kd turned out to be 15 nM.

These data come from ChEMBL document CHEMBL4609986 (Bioorg Med Chem, 2020).
